Reference: US10058550B2, “Methods of treating heart failure” (priority 2015, dated 2018)

How the values were obtained:
APJ receptor [1] = target: T1, APJ receptor (Homo sapiens (Human), UniProt P35414); format: biochemical; conditions: read-out: Activity hAPJ SPA EC50 IP
Method: The human APJ receptor was cloned by polymerase chain reaction and the gene encoding the receptor was subcloned in pFLAG-CMV™-3 expression vector (Sigma, Saint Louis, Mo. USA) in-house at Amgen. A GTPγS binding assay was performed on membranes prepared from CHO cells stably expressing human APJ receptor. The optimum experimental conditions for the concentrations of GDP, MgCl2, and NaCl in the assay buffer were initially determined. The assay was performed in assay buffer [20 mM HEPES, pH 7.5, 5 mM MgCl2, and 0.1% (w/v) BSA with 200 mM NaCl, 3 μM GDP] and membranes expressing human APJ receptor/well along with WGA PS beads. The reaction was initiated by addition of 0.2 nM [^35S]GTPγS (Perkin Elmer Life and Analytical Sciences, Waltham USA) in the absence or presence of various ligands and incubated at RT for 90 min. […] All the results presented are means of several independent experiments and analyzed by non-linear regression methods using commercially available program Prism (GraphPad, San Diego, Calif.) to obtain EC50 detailed in Table 58.

[2] = tested on: isolated perfused rat hearts; assay: Load independent inotropic effects, ex vivo assay (isolated perfused rat hearts, Langendorff); conditions: percent change over vehicle
From the text: Evidence for Load Independent Inotropic Effects with APJ Agonists using Ex Vivo Assay (Isolated Perfused Rat Hearts)
Naive Sprague Dawley® SD rats (Harlan laboratories (Livermore, Calif. USA)) were anesthetized and hearts were excised followed by cannulation in the Langendorff apparatus (Harvard apparatus, Holliston, Mass. USA) via aorta. […] The pressure of the solution causes the aortic valve to shut and the perfusate is then forced into the ostium and the coronary vessels. This allows the heart to beat for several h. A balloon was inserted into the left ventricle (LV) to measure dP/dtmax (derivative of left ventricular pressure) as an index of cardiac contractility. The APJ agonist was perfused constantly in a dose dependent manner into the heart to examine cardiac contractility.

heart failure rat model = assay: Cardiac contractility in vivo in heart failure rat model (MI rat model); conditions: acute administration for 30 min
Method: Male Lewis rats (Charles River, USA) at 2-3 months of age were used for the study. […] APJ agonists were administered dose dependently acutely for a period of 30 min.

APJ receptor [3] = target: T1, APJ receptor; conditions: higher affinity than apelin-36; Kawamata et al., Hosoya et al.; cited from earlier work
[4] = target: human APJ receptor expressed in the CHO cell line (Homo sapiens (Human), UniProt P35414); conditions: different concentrations of AngII with fixed concentration of pyr apelin-13; human APJ receptor expressed alone in CHO cells
Method: (§1) The function of the inositol phosphate accumulation (IP1) was measured by Time-resolved fluorescence resonance energy (TR-FRET) at 620 nm and 665 nm respectively.

[5] = target: human APJ-AT1R (angiotensin Type 1) double stable CHO cell line (Homo sapiens (Human), UniProt P30556+P35414); conditions: different concentrations of AngII with fixed concentration of pyr apelin-13; human APJ-AT1R double stable CHO cells
Method: as §1

Row | Compound | EC50 (APJ receptor [1]) | also measured
1 | COc1cccc(OC)c1-n1c(NS(=O)(=O)[C@@H](C)[C@H](OC)c2ncc(C)cn2)nnc1-c1cccnc1 [Example 173.0, (1R,2S)-N-(4-(2,6-dimethoxyphenyl)-5-(pyridin-3-yl)-4H-1,2,4-triazol-3-yl)-1-methoxy-1-(5-methylpyrimidin-2-yl)propane-2-sulfonamide] | 1.2 nM | 
2 | COc1cccc(OC)c1-n1c(NS(=O)(=O)[C@H](C)[C@@H](C)c2cnc(C)cn2)nnc1-c1cncc(C)c1 [Example 199.0, (2R,3S)-N-(4-(2,6-dimethoxyphenyl)-5-(5-methylpyridin-3-yl)-4H-1,2,4-triazol-3-yl)-3-(5-methylpyrazin-2-yl)butane-2-sulfonamide] | 19 nM | 
3 | COc1cccc(OC)c1-n1c(NS(=O)(=O)[C@H](C)[C@@H](C)c2ncc(C)cn2)nnc1-c1cncc(C)c1 [Example 238.0, (2R,3S)—N-(4-(2,6-dimethoxyphenyl)-5-(5-methylpyridin-3-yl)-4H-1,2,4-triazol-3-yl)-3-(5-methylpyrimidin-2-yl)butane-2-sulfonamide] | 12 nM | 
4 | COc1cccc(OC)c1-n1c(NS(=O)(=O)[C@@H](C)[C@H](C)c2ncc(C)cn2)nnc1-c1cncc(C)c1 [Example 263.0, (2S,3R)—N-(4-(2,6-dimethoxyphenyl)-5-(5-methylpyridin-3-yl)-4H-1,2,4-triazol-3-yl)-3-(5-methylpyrimidin-2-yl)butane-2-sulfonamide] | 0.32 nM | Isolated Heart Assay dP/dtmax (%) [2]: 29%; Isolated Heart Assay dP/dtmin (%) [2]: 32%; MI Rat Model dP/dtmax (%) (heart failure rat model): 25%
5 | COc1cccc(OC)c1-n1c(NS(=O)(=O)[C@@H](C)[C@H](C)c2cnc(C)cn2)nnc1-c1cncc(C)c1 [Example 506.0, (2S,3R)—N-(4-(2,6-dimethoxyphenyl)-5-(5-methyl-3-pyridinyl)-4H-1,2,4-triazol-3-yl)-3-(5-methyl-2-pyrazinyl)-2-butanesulfonamide] | 1.2 nM | 
6 | COc1c(Br)cc(Br)c(OC)c1-n1c(NS(=O)(=O)[C@@H](C)[C@H](C)c2ncc(C)cn2)nnc1-c1cncc(C)c1 [Example 732.0, (2S,3R)—N-(4-(3,5-dibromo-2,6-dimethoxyphenyl)-5-(5-methylpyridin-3-yl)-4H-1,2,4-triazol-3-yl)-3-(5-methylpyrimidin-2-yl)butane-2-sulfonamide] | 37 nM | 
7 | COc1cccc(OC)c1-n1c(NS(=O)(=O)[C@@H](C)[C@H](C)c2ncc(C)cn2)nnc1-c1cncc(CO)c1 [Example 846.0, (2S,3R)-N-(4-(2,6-dimethoxyphenyl)-5-(5-(hydroxymethyl)-3-pyridinyl)-4H-1,2,4-triazol-3-yl)-3-(5-methyl-2-pyrimidinyl)-2-butanesulfonamide] | 6.6 nM | 
8 | Apelin-13 |  | in vitro affinity to the APJ receptor relative to apelin-36 (APJ receptor [3]): ~3.5 fold
9 | pyroglutamated apelin-13 [pyr apelin-13] |  | positive cooperativity (IP1 accumulation) [4]: no positive cooperativity observed; positive cooperativity on the AT1R (IP1 accumulation) [5]: induces the positive cooperativity on the AT1R
